We go through 2 compounds from PubChem BioAssay AID652106 (National Center for Advancing Translational Sciences (NCATS), 2013).

The entries are a selection whose mix differs from that of the whole data set. Active and inactive are the calls of the source. The call rests on the fitted dose curve; in most records, active means well fitted activation curve with a large enough effect; inconclusive means small, poorly fitted or top-dose-only effect; inactive means no such curve, though single readings can be large or run the other way.

The assay is described as follows: qHTS of alpha-syn Inhibitors. Further: % of control where 0% means no effect; nearly all actives have a fitted effect of over 65% in size. The following applies: Yeast expressing alpha-synuclein, BacTiter-Glo, 24 h; at 46.1 µM (top of the series). The text has this: The goal of this project is to identify new chemical probes capable of reversing the toxicity associated with the Parkinson disease-related protein, alpha-synuclein. Compounds will be selected on their ability to restore growth in yeast cells expressing toxic levels of alpha-synuclein. These compounds will provide a complementary approach to deciphering the tangled mechanisms of toxicity and protection that we have uncovered through genome-wide genetic screens and are beginning to uncover in a large-scale proteomics analysis with mass spectroscopy. To this end, a miniaturized assay was developed to be screened against the Molecular Libraries Small Molecule Repository (MLSMR) to discover alpha-synuclein inhibitors. Please note that in the set-up this yeast-based assay compounds that inhibit as alpha-syn, have a read-out as activators. NIH Chemical Genomics Center [NCGC] NIH Molecular Libraries Probe Centers Network [MLPCN] […]
Dispense 2.5 microL yeast galactose medium per 1536-well plate, pin compound, dispense 2.5 microL alpha-synuclein expressing yeast in galactose medium at OD600=0.02 (pregrown in raffinose medium to mid-log phase) per well, incubate for 24 hr at 30 deg C, and cell growth will be measured using 5 microL of Bactiter/Glo reagent to entire plate and read using Luminescence Protocol in ViewLux.
A general note: In qHTS, concentration-response curves come from the screen itself.
For the compound `CCC(=O)N(c1ccccc1)C1(COC)CCN(CCc2cccs2)CC1`, the growth rescue (activation) is inactive: -0.876%.

Take `CCC(=O)N(c1ccccc1)C1(COC)CCN(CCn2nnn(CC)c2=O)CC1`: the growth rescue (activation) is inactive: -6.96%.
